Values of other authors, collected in patent publication US20090221538A1, “METHODS OF TREATING MULTIPLE SCLEROSIS BY ADMINISTERING PULSE DOSE CALCITRIOL” (priority 2008, published 2009).

System: MS
Settings: cited from earlier work

B1: interferon-beta-1: FDA-approved, self-injectable MS drug (protein, UniProt P01574 22-187, looked up)
Interferon beta: MSYNLLGFLQRSSNFQCQKLLWQLNGRLEYCLKDRMNFDIPEEIKQLQQFQKEDAALTIYEMLQNIFAIFRQDSSSTGWNETIVENLLANVYHQINHLKTVLEEKLEKEDFTRGKLMSSLHLKRYYGRILHYLKAKEYSHCAWTIVRVEILRNFYFINRLTGYLRN
disability progression (RRMS, PPMS or SPMS patients): did not slow disability progression
reduction of the relapse rate (some relapsing-remitting MS (RRMS)): ~35%
